In US20060094722A1 (Eisai Co., Ltd., priority 2002, published 2006):

System: Zucker fa/fa rats
Method: Animals: Zucker fa/fa Rats, an Animal Model for TypeII Diabetes (Purchased from Charles River Japan, Inc.)
Each test compound was dissolved in distilled water at the doses shown in the Tables indicated below, and then administered orally at a volume of 5 mL/kg. The vehicle control group was orally administered distilled water at a volume of 5 mL/kg. […] The rats were tested for glucose tolerance on the first day of the administration series. In the test, distilled water and the test compounds were given 0.5 hour before glucose load.
For the glucose tolerance test, an unanesthetized rat was lightly cut at the caudal vein with a razor blade and bled immediately before the administration of a test compound or distilled water, and immediately before, and at 0.5, 1, 2, and 3 hours after glucose load. 250 μL of blood was collected from the rat using a heparinized capillary and transferred into a centrifugation tube. The supernatant obtained by centrifugation (at 10000 g at 4° C. for 2 minutes) was assayed for active GLP-1 level using Active GLP-1 ELISA kit (Linco). At the same time, 10 μL of blood was collected and mixed with 140 μL of a 0.6 M perchloric acid solution. […] The level of blood glucose alone was determined at the time of measurement 3 hours after glucose load.

SMILES: CC(C)[C@H](N)C(=O)N1CCCC1 [Val-Pyr, valine pyrrolidide]
- level of active GLP-1 during the glucose tolerance test: elevated significantly
